Results taken from US4550115A, “Certain piperidino-lower-alkylene esters of 3-methylflavone-8-carboxylates possessing smooth muscle relaxant activity” (Recordati S.A., Chemical & Pharmaceutical Company, priority 1981, dated 1985).

Experiments:
[1] = Stability test, pH 7.4 (37° C., phosphate buffer; spectrodensitometric determination of 3-methylflavone-8-carboxylic acid from hydrolysis)
guinea pig ileum = experiment: Antispastic or antispasmodic activity, BaCl2-induced contraction of guinea pig ileum (Magnus method); conditions: read-out: ED50 (antispastic or antispasmodic activity), 30° C., BaCl2 1 to 4.10^-4 M, drug one minute before BaCl2, inhibition of contraction

Cc1c(-c2ccccc2)oc2c(C(=O)OC3CN4CCC3CC4)cccc2c1=O.Cl (stereo not drawn)
Stability test, pH 7.4, after 1 hour ([1]; phosphate buffer pH 7.4, after 1 hour): 100% | Stability test, pH 7.4, after 3 hours ([1]; phosphate buffer pH 7.4, after 3 hours): 100%

Cc1c(-c2ccccc2)oc2c(C(=O)OC3CN4CCC3CC4)cccc2c1=O (stereo not drawn)
IC50 (guinea pig ileum): 2100 nM
